{"source": "paper PMC9060444", "about": "(2022)", "target": "GST-ElpQ (B. burgdorferi strain B31)", "assay": "SPR; Biacore T200; GST-ElpB or GST-ElpQ immobilised on the sensor chip; C1 complex (twofold series 0.6 to 150 nM), C1r or C1s enzyme or proenzyme injected as analyte; steady-state affinity fits; triplicate"}
{"substance": "human complement C1 complex (from UniProt P02745 23-245; P02746 28-253; P02747 29-245)", "values": [{"measurement": "Kd", "result": 11, "unit": "nM"}]}
